Results from PMC7721897, “Metabolism and pharmacokinetics of a novel polyphenol fatty acid ester phloridzin docosahexaenoate in Balb/c female mice” (Scientific Reports, 2020).

Assay: In vitro phase I metabolism with mouse hepatic microsomes and NADPH
Assay type: in vitro ADME
Conditions: PZ-DHA 1.1 µM, 100 mM NADPH, 1 h, 37 °C
Protocol: Figure 2 PZ-DHA undergoes phase I metabolism in the presence of freshly prepared mouse liver microsomes. PZ-DHA (1.1 µM) was incubated with 100 mM NADPH in the presence of mouse liver microsome for 1 h at 37 °C. Metabolites from PZ-DHA (A) hydrolysis, (B) and (C) hydroxylation, and (D) epoxidation were identified.
Mouse hepatic microsomes were freshly isolated from the livers of male C57BL/6 mice, and the entire extraction procedure was carried out at 4 °C. Mouse livers were minced and homogenized in KCl/sucrose phosphate buffer (0.154 M KCl, 0.25 M sucrose in 50 mM potassium phosphate buffer (K2HPO4/KH2PO4) (PPB), pH 7.5). […] The protein concentration was determined using a Bradford assay (R^2 = 1.00), and microsomes were stored at − 80 °C.
Potential in vitro phase I and phase II metabolites of PZ-DHA were detected by incubating PZ-DHA in the presence of freshly-prepared mouse hepatic microsome preparations. Phase I metabolites were determined by incubating 1.1 µM PZ-DHA with 100 mM NADPH in the presence of mouse hepatic microsomes for 1 h at 37 °C. Phase II methylation, glucuronidation, and sulphation of PZ-DHA was determined by incubating 1.1 µM PZ-DHA with 1 mM SAM, 2 mM UDPGA, and 0.5 mM PAPS, respectively, in the presence of freshly prepared mouse hepatic microsome for 1 h at 37 °C (Supplementary information Tables S1–S4). […]

In the case of tetra-epoxy-phloridzin docosahexaenoate, the “phase I metabolite of PZ-DHA identified” value is reported as “identified”.
